In patent US20250340556A1, “PYRIMIDOPYRIMIDONE COMPOUNDS AND METHODS OF USE THEREOF” (Soltego, Inc., priority 2022, published 2025):

Assays:
[1] = tested on: living human skin explants; test: Melanin in living human skin explants, Fontana-Masson staining (Example 8); type: cell-based; conditions: topical, Example 8 conclusion
B16 4A5 cells = test: B16 4A5 melanin content normalised to protein; conditions: 72 h; for production of melanin: vs DMSO 0.06%

Cc1cccc(C)c1N1Cc2cnc3nc2N(CCCC(=O)OCc2cc(ccc2N2CCN(C)CC2)N3)C1=O [SLT-026]
melanin production in living human skin explants [1]: increased melanin production

Cc1cccc(C)c1N1Cc2cnc3nc2N(CCC(=O)OCc2cc(ccc2N2CCN(C)CC2)N3)C1=O [SLT-023]
melanin production in living human skin explants [1]: increased melanin production
production of melanin (B16 4A5 cells; 1, 0.3 and 0.1 μg/ml): significantly increased

Cc1cccc(C)c1N1Cc2cnc3nc2N(CCCOC(=O)Cc2cc(ccc2N2CCN(C)CC2)N3)C1=O [SLT-048]
melanin production in living human skin explants [1]: increased melanin production
production of melanin in comparison with the 0.06% DMSO (B16 4A5 cells; 0.3 μg/ml): 180%
production of melanin in comparison with the 0.06% DMSO (B16 4A5 cells; 1 μg/ml): 250%
production of melanin (B16 4A5 cells; 1 and 0.3 μg/ml): significantly increase

Cc1cccc(C)c1N1Cc2cnc3nc2N(CCCCOC(=O)c2cc(ccc2N2CCN(C)CC2)N3)C1=O [SLT-042]
melanin production in living human skin explants [1]: increased melanin production
